What was measured:
[1] = biological target: Acetylcholinesterase (Homo sapiens) (UniProt P22303); experiment: Ratio of Kr/kmax for reactivation of acetylcholinesterase at concentration of 2M*10e4 [HOX] and 10 Me-1*10e-3 [OX]e-1 was determined; Expressed as Kr/kmax, M-min*10e2
[2] = biological target: Acetylcholinesterase (Homo sapiens) (UniProt P22303); experiment: Percent reactivation of acetylcholinesterase after 24 hr incubation
[3] = biological target: Acetylcholinesterase (Homo sapiens) (UniProt P22303); experiment: Kinetic constant was determined for reactivation of acetylcholinesterase at concentration of 10M*10e4 [HOX] and 3.5Me-1*10e-3 [OX]e-1; (kobsd-ka)e-1, min
[4] = biological target: Acetylcholinesterase (Homo sapiens) (UniProt P22303); experiment: Pseudo first order observed rate constants for reactivation of acetylcholinesterase at 0.0800 M*10e4 HOX and 0.0232 M *10e4OX; Kobs (min-1 X 10e3)
[5] = biological target: Acetylcholinesterase (Homo sapiens) (UniProt P22303); experiment: Pseudo first order observed rate constants for reactivation of acetylcholinesterase at 0.0100 M*10e4 HOX and 0.0289 M *10e4OX; Kobs (min-1 X 10e3)
[6] = biological target: Acetylcholinesterase (Homo sapiens) (UniProt P22303); experiment: Ratio of ka to that of kr for reactivation of acetylcholinesterase at concentration of 2M*10e4 [HOX] and 10 Me-1*10e-3 [OX]e-1 was determined
[7] = biological target: Acetylcholinesterase (Homo sapiens) (UniProt P22303); experiment: Kinetic constant was determined for reactivation of acetylcholinesterase at concentration of 0.0800 M*10e4 [HOX] and 431Me-1*10e-3 [OX]e-1; (kobsd-ka)e-1, min
[8] = biological target: Acetylcholinesterase (Homo sapiens) (UniProt P22303); experiment: Kinetic constant was determined for reactivation of acetylcholinesterase at concentration of 0.100 M *10e4 [HOX] and 346Me-1*10e-3 [OX]e-1; (kobsd-ka)e-1, min
[9] = biological target: Acetylcholinesterase (Homo sapiens) (UniProt P22303); experiment: 1/kmax for reactivation of acetylcholinesterase at concentration of 2M*10e4 [HOX] and 10 Me-1*10e-3 [OX]e-1 was determined; Expressed as 1/kmax, min
[10] = biological target: Acetylcholinesterase (Homo sapiens) (UniProt P22303); experiment: Percent reactivation of acetylcholinesterase after 2 hr incubation
[11] = biological target: Acetylcholinesterase (Homo sapiens) (UniProt P22303); experiment: Kinetic constant was determined for reactivation of acetylcholinesterase at concentration of 0.200 M*10e4 [HOX] and 175Me-1*10e-3 [OX]e-1; (kobsd-ka)e-1, min
[12] = biological target: Acetylcholinesterase (Homo sapiens) (UniProt P22303); experiment: Maximum attainable percent reactivation obtained for a range of concentrations of 0.0800 M*10e4 HOX and 0.0232 M *10e4OX
[13] = biological target: Acetylcholinesterase (Homo sapiens) (UniProt P22303); experiment: kr for reactivation of acetylcholinesterase at concentration of 2M*10e4 [HOX] and 10 Me-1*10e-3 [OX]e-1 was determined; Expressed as kr, M*10e3
[14] = biological target: Acetylcholinesterase (Homo sapiens) (UniProt P22303); experiment: Percent reactivation of acetylcholinesterase after 4 hr incubation
[15] = biological target: Acetylcholinesterase (Homo sapiens) (UniProt P22303); experiment: Pseudo first order observed rate constants for reactivation of acetylcholinesterase at 0.0300 M *10e4 HOX and 0.00870 M*10e4OX; Kobs (min-1 X 10e3)
[16] = biological target: Acetylcholinesterase (Homo sapiens) (UniProt P22303); experiment: ka for reactivation of acetylcholinesterase at concentration of 2M*10e4 [HOX] and 13.3Me-1*10e-3 [OX]e-1 was determined; Expressed as ka, 1/min 1*10e3
[17] = biological target: Acetylcholinesterase (Homo sapiens) (UniProt P22303); experiment: Maximum attainable percent reactivation obtained for a range of concentrations of 20 M*10e4 HOX and 7.52M*10e4OX
[18] = biological target: Acetylcholinesterase (Homo sapiens) (UniProt P22303); experiment: Kinetic constant was determined for reactivation of acetylcholinesterase at concentration of 12M*10e4 [HOX] and 2.20 Me-1*10e-3 [OX]e-1; (kobsd-ka)e-1, min
[19] = biological target: Acetylcholinesterase (Homo sapiens) (UniProt P22303); experiment: Maximum attainable percent reactivation obtained for a range of concentrations of 4M*10e4 HOX and 1.52M*10e4OX
[20] = biological target: Acetylcholinesterase (Homo sapiens) (UniProt P22303); experiment: keff (rel) for reactivation of acetylcholinesterase at concentration of 2M*10e4 [HOX] and 13.3Me-1*10e-3 [OX]e-1 was determined; Expressed as keff (rel)
[21] = biological target: Acetylcholinesterase (Homo sapiens) (UniProt P22303); experiment: Maximum attainable percent reactivation obtained for a range of concentrations of 12M*10e4 HOX and 4.51M*10e4OX
[22] = biological target: Acetylcholinesterase (Homo sapiens) (UniProt P22303); experiment: Kinetic constant was determined for reactivation of acetylcholinesterase at concentration of 6M*10e4 [HOX] and 4.42Me-1*10e-3 [OX]e-1; (kobsd-ka)e-1, min
[23] = biological target: Acetylcholinesterase (Homo sapiens) (UniProt P22303); experiment: kr for reactivation of acetylcholinesterase at concentration of 2M*10e4 [HOX] and 13.3Me-1*10e-3 [OX]e-1 was determined; Expressed as kr, M*10e3
[24] = biological target: Acetylcholinesterase (Homo sapiens) (UniProt P22303); experiment: Ratio of ka to that of kr for reactivation of acetylcholinesterase at concentration of 2M*10e4 [HOX] and 13.3Me-1*10e-3 [OX]e-1 was determined
[25] = biological target: Acetylcholinesterase (Homo sapiens) (UniProt P22303); experiment: Ratio of [EOP'']infinity to that of [EOH]infinity for reactivation of acetylcholinesterase at concentration of 10M*10e4 [HOX] and 2.66Me-1*10e-3 [OX]e-1; Expressed as [EOP'']infinity/[EOH]infinity

Protein sequences, listed by entry. Tags and fused reporters are not part of them. Lines headed by an entry give the natural chain unless they say otherwise; changes in a name come on top.
UniProt P22303: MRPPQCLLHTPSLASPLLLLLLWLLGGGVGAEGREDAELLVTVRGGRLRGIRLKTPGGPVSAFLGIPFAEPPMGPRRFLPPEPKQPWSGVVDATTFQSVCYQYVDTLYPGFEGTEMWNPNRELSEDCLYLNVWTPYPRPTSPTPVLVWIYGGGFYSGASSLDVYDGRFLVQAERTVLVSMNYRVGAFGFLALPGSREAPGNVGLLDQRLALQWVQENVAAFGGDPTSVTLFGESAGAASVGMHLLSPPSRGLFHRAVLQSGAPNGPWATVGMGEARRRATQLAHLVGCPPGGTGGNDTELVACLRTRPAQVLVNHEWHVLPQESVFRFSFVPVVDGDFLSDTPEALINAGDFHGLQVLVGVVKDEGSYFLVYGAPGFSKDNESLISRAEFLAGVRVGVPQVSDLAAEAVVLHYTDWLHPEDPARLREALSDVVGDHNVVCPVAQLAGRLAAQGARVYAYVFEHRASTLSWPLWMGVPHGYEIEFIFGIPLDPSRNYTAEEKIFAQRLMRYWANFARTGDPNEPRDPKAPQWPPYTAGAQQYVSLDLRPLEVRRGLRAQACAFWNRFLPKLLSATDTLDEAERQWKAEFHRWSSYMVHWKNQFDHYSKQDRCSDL

Compound: C[n+]1ccccc1C=NO
- Kr/kmax [1]: 1.7 M-min
- Reactivation [2]: 85%
- 1/kobsd-ka [3]: 8.13 min
- k obs [4]: 155 s⁻¹
- k obs [5]: 327 s⁻¹
- ka/kr [6]: 0.11
- 1/kobsd-ka [7]: 129 min
- 1/kobsd-ka [8]: 55.5 min
- 1/kmax [9]: 15 min
- Reactivation [10]: 109%
- 1/kobsd-ka [11]: 35.4 min
- Reactivation [12]: 4.2%
- kr [13]: 61000 min⁻¹
- Reactivation [14]: 105%
- k obs [15]: 110 s⁻¹

Compound: CCN(CC)CCS/C(=N\O)C(=O)c1ccc(OC)cc1
- ka [16]: 2400 min⁻¹
- Reactivation [17]: 4.3%
- 1/kobsd-ka [18]: 187 min
- Reactivation [2]: 55%
- Reactivation [19]: 3.49%
- k eff (rel) [20]: 1
- Reactivation [10]: 31%
- Reactivation [21]: 4.22%
- 1/kobsd-ka [22]: 281 min
- kr [23]: 8600 min⁻¹
- ka/kr [24]: 0.17
- Reactivation [14]: 58%
- [EOP']infinity/[EOH]infinity [25]: 0.742

Reference: ChEMBL document CHEMBL1121722, “Nonquaternary cholinesterase reactivators. Dialkylaminoalkyl thioesters of alpha-ketothiohydroximic acids as reactivators of diisopropyl phosphorofluoridate inhibited acetylcholinesterase” (1981)
